Amino acid sequences for entries named in this document (tags omitted). Residues count along the entry.
UniProt P28335, 33-458: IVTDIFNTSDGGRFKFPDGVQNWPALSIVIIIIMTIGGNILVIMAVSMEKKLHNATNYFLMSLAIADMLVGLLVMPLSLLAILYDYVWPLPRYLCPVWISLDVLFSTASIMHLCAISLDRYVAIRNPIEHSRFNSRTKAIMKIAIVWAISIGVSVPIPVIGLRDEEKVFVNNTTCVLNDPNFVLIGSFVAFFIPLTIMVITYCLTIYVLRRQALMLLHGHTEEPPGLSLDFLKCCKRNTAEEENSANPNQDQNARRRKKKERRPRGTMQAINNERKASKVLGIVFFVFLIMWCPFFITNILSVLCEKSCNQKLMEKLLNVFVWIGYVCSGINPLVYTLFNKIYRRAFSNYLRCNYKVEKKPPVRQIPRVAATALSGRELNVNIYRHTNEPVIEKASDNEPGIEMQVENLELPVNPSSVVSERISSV

According to patent US7012089B2, “[1,4]Diazocino[7,8,1-hi]indole derivatives as antipsychotic and antiobesity agents” (Wyeth, priority 2002, dated 2006):

How the values were obtained:
[1] = target: human 5-HT2C receptor (Homo sapiens, UniProt P28335); test: 5-HT2C receptor-stimulated calcium mobilization (FLIPR) in CHO cells; settings: reference compounds
[2] = target: human 5-hydroxytryptamine-2C (h-5-HT2C) receptor (Homo sapiens, UniProt P28335); test: [125I]DOI binding to membranes of CHO cells expressing the h-5-HT2C receptor; settings: reference compounds; displacement of [125I]DOI, CHO cell membranes; read-out: Ki (95% confidence interval)

Clc1cccc(N2CCNCC2)c1 [mCPP, meta-chlorophenylpiperazine, reference compound]
EC50 [1]: 5.4 nM | Ki [2]: 6.5 nM
